# Permeability data for macrocyclic peptides

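Lipid, pH, incubation time, direction and concentration are not recorded in the data file. The list need not hold all peptides of the study. Entries at the database's floor value (log10 P of -10) are not listed.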

PAMPA measures passive passage through an artificial lipid membrane. P is given in units of 10^-6 cm/s (from log10 values with two decimals); larger means faster passage.

Listed for CC(C)C[C@@H]1C(=O)N2CCC[C@@H]2C(=O)N[C@H](CC(C)C)C(=O)N[C@@H](Cc2ccccc2)C(=O)N2CCC[C@H]2C(=O)N(C)[C@H](C)C(=O)N[C@H](CC(C)C)C(=O)N1C: PAMPA 4.9 × 10^-6 cm/s.
Listed for CCCN1CC(=O)N[C@H](CC(C)C)C(=O)N[C@H](CC(C)C)C(=O)N2CCC[C@@H]2C(=O)N[C@@H](CC(C)C)C(=O)N[C@@H](Cc2ccccc2)C1=O: PAMPA 1.3 × 10^-6 cm/s.
Listed for CC(C)C[C@@H]1C(=O)N2CCC[C@@H]2C(=O)N(Cc2ccccc2)CC(=O)N[C@@H](Cc2ccccc2)C(=O)N(C)[C@@H](C)C(=O)N[C@H](CC(C)C)C(=O)N1C: PAMPA 6.3 × 10^-6 cm/s.
Listed for CCCN1CC(=O)N[C@H](CC(C)C)C(=O)N[C@H](CC(C)C)C(=O)N2CCC[C@H]2C(=O)N(Cc2ccccc2)CC(=O)N[C@@H](Cc2ccccc2)C1=O: PAMPA 1.3 × 10^-6 cm/s.
Listed for CCCN1CC(=O)N[C@@H](CC(C)C)C(=O)N(Cc2ccccc2)CC(=O)N2CCC[C@H]2C(=O)N(C)[C@@H](CC(C)C)C(=O)N[C@@H](Cc2ccccc2)C1=O: PAMPA 13 × 10^-6 cm/s.
Listed for CC(C)C[C@@H]1NC(=O)[C@H](CC(C)C)N(C)C(=O)C[C@H](Cc2ccccc2)NC(=O)[C@H]2CCCN2C(=O)[C@H](Cc2ccccc2)NC(=O)[C@@H](CC(C)C)NC(=O)[C@@H]2CCCN2C1=O: PAMPA 4.7 × 10^-6 cm/s.
Listed for CC(C)C[C@@H]1C(=O)N[C@@H](Cc2ccccc2)C(=O)N(C)[C@@H](C)C(=O)N[C@H](CC(C)C)C(=O)N(Cc2ccccc2)CC(=O)N2CCC[C@@H]2C(=O)N1C: PAMPA 4.5 × 10^-6 cm/s.
Listed for CCCN1CC(=O)N(C)[C@@H](CC(C)C)C(=O)N[C@H](CC(C)C)C(=O)N2CCC[C@@H]2C(=O)N(C)[C@H](CC(C)C)C(=O)N[C@@H](Cc2ccccc2)C(=O)N2CCC[C@@H]2C1=O: PAMPA 4.8 × 10^-6 cm/s.
Listed for CC(C)C[C@@H]1C(=O)N[C@@H](Cc2ccccc2)C(=O)N2CCC[C@H]2C(=O)N[C@@H](C)C(=O)N(C)[C@@H](CC(C)C)C(=O)N(Cc2ccccc2)CC(=O)N2CCC[C@@H]2C(=O)N1C: PAMPA 1.1 × 10^-6 cm/s.
Listed for CC(C)C[C@@H]1C(=O)N2CCC[C@@H]2C(=O)N(C)[C@H](CC(C)C)C(=O)N[C@@H](Cc2ccccc2)C(=O)N2CCC[C@@H]2C(=O)N(C)[C@@H](C)C(=O)N(C)[C@H](CC(C)C)C(=O)N1C: PAMPA 0.93 × 10^-6 cm/s.
Listed for CC(C)C[C@@H]1C(=O)N2CCC[C@H]2C(=O)N(C)[C@H](CC(C)C)C(=O)N[C@@H](Cc2ccccc2)C(=O)N2CCC[C@H]2C(=O)N[C@H](C)C(=O)N[C@H](CC(C)C)C(=O)N1C: PAMPA 0.14 × 10^-6 cm/s.
Listed for CC(C)C[C@@H]1C(=O)N[C@@H](Cc2ccccc2)C(=O)N2CCC[C@H]2C(=O)N[C@@H](Cc2ccccc2)CC(=O)N(C)[C@@H](CC(C)C)C(=O)N[C@H](CC(C)C)C(=O)N2CCC[C@H]2C(=O)N1C: PAMPA 3.2 × 10^-6 cm/s.
Listed for CC(C)C[C@@H]1C(=O)N[C@@H](Cc2ccccc2)C(=O)N2CCC[C@H]2C(=O)N(C)[C@H](C)C(=O)N(Cc2ccccc2)CC(=O)N[C@H](CC(C)C)C(=O)N2CCC[C@@H]2C(=O)N1C: PAMPA 5.8 × 10^-6 cm/s.
Listed for CC(C)C[C@@H]1NC(=O)[C@H](C)N(C)C(=O)[C@H]2CCCN2C(=O)[C@H](Cc2ccccc2)NC(=O)[C@@H](CC(C)C)N(C)C(=O)[C@H]2CCCN2C(=O)CN(Cc2ccccc2)C1=O: PAMPA 6.3 × 10^-6 cm/s.
Listed for CC(C)C[C@@H]1NC(=O)[C@H]2CCCN2C(=O)[C@@H](CC(C)C)N(C)C(=O)[C@@H](CC(C)C)NC(=O)C[C@H](Cc2ccccc2)NC(=O)[C@H]2CCCN2C(=O)[C@H](Cc2ccccc2)NC1=O: PAMPA 1.8 × 10^-6 cm/s.
Listed for CC(C)C[C@H]1NC(=O)[C@H](C)NC(=O)[C@H](Cc2ccccc2)NC(=O)CN(Cc2ccccc2)C(=O)[C@@H]2CCCN2C(=O)[C@@H](CC(C)C)NC1=O: PAMPA 1.3 × 10^-6 cm/s.
Listed for CC(C)C[C@H]1C(=O)N(Cc2ccccc2)CC(=O)N2CCC[C@H]2C(=O)N(C)[C@@H](CC(C)C)C(=O)N[C@@H](Cc2ccccc2)C(=O)N2CCC[C@H]2C(=O)N[C@@H](Cc2ccccc2)CC(=O)N1C: PAMPA 2 × 10^-6 cm/s.
Listed for CC(C)C[C@H]1NC(=O)C[C@H](Cc2ccccc2)NC(=O)[C@@H]2CCCN2C(=O)[C@H](Cc2ccccc2)NC(=O)[C@H](CC(C)C)N(C)C(=O)[C@@H]2CCCN2C(=O)[C@@H](CC(C)C)NC1=O: PAMPA 1.2 × 10^-6 cm/s.

The 3 highest values of PAMPA among the entries above:

Listed for CCCN1CC(=O)N[C@@H](CC(C)C)C(=O)N(Cc2ccccc2)CC(=O)N2CCC[C@H]2C(=O)N(C)[C@@H](CC(C)C)C(=O)N[C@@H](Cc2ccccc2)C1=O: PAMPA 13 × 10^-6 cm/s.
Listed for CC(C)C[C@@H]1NC(=O)[C@H](C)N(C)C(=O)[C@H]2CCCN2C(=O)[C@H](Cc2ccccc2)NC(=O)[C@@H](CC(C)C)N(C)C(=O)[C@H]2CCCN2C(=O)CN(Cc2ccccc2)C1=O: PAMPA 6.3 × 10^-6 cm/s.
Listed for CC(C)C[C@@H]1C(=O)N2CCC[C@@H]2C(=O)N(Cc2ccccc2)CC(=O)N[C@@H](Cc2ccccc2)C(=O)N(C)[C@@H](C)C(=O)N[C@H](CC(C)C)C(=O)N1C: PAMPA 6.3 × 10^-6 cm/s.

Source: CycPeptMPDB (Li et al. 2023), which took these values from Townsend et al. 2020, doi:10.26434/chemrxiv.13335941.v1.